Measured values taken from ChEMBL document CHEMBL1140896, “Morpholino, piperidino, and pyrrolidino derivatives of pyrimidine nucleosides as inhibitors of ribonuclease A: synthesis, biochemical, and crystallographic evaluation” (J Med Chem, 2009).

Biological target: T1, Ribonuclease pancreatic (Bos taurus, UniProt P61823)
T1 sequence (P61823 whole entry): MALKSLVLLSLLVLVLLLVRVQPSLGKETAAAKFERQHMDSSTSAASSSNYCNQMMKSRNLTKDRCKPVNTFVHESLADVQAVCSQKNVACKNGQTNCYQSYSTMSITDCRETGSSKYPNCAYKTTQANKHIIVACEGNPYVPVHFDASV
Assay: Inhibition of bovine pancreatic RNase A by spectrophotometric method
Procedure, shortened: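 Bovine pancreatic RNase A; spectrophotometric initial-velocity assay with 2′,3′-cCMP substrate in 0.1 M Mes-NaOH pH 6.0, 0.1 M NaCl. Ki taken from Dixon plots (1/V vs [I]) by the competitive equation; at least three repeats per set.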

**Q.** `Cc1cn([C@H]2C[C@H](O)[C@@H](CN3CCCCC3)O2)c(=O)[nH]c1=O` was tested. Which Ki did it give?
**A.** 396 µM
